Measurements as given in paper PMC6892603 (Bioorganic & medicinal chemistry letters, 2019).

System: Tulahuen C4 strain of Trypanosoma cruzi
Conditions: T. cruzi vs host cell cytotoxicity

For `CN1CCN(c2ccc(S(=O)(=O)NCc3ccc(C(=O)Nc4cccnc4)cc3)cc2)CC1` [Compound 2], the selectivity-index was ≥ 10.
